Apparent affinities of Ab-14 variants for a coronavirus HR2 peptide

The target is the same throughout: PDVDLGDISGINAS, from the HR2 region of SARS-CoV-2 spike.

Each scFv is VH, a 15-residue (Gly4Ser)3 linker, VL, as in the parent Ab-14, and differs from it in the CDRs of the light chain only.
VH: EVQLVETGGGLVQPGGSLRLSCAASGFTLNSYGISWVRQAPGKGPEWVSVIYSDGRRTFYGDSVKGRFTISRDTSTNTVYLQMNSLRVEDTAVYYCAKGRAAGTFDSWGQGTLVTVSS
VL: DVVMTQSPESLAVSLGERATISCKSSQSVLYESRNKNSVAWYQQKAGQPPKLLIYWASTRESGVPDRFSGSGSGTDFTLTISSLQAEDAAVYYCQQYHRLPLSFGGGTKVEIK

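The parent was found by panning a naive human phage display library on the peptide. These sequences belong to a second round, designed from the earlier measurements on random variants of the parent. Several design methods are mixed in this list. In AlphaSeq, yeast of one mating type display the scFv and yeast of the other type display the target. Mating (16 h, 30 °C) was followed by selection of diploids and sequencing of their barcodes. The ratio of observed to expected reads was calibrated, replicate by replicate, on BCL2-family standards whose Kd was known from biolayer interferometry. The assay was run in six technical replicates.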

Variants are written as CDR1, CDR2 and CDR3 of the light chain (limits as in the source). Parent: KSSQSVLYESRNKNSVA, WASTRES, QQYHRLPLS.
This list holds designs with more than six substitutions.
Numbers give log10(Kd / nM), so 0 is 1 nM and 3 is 1 µM. Smaller is tighter.
The mean shown is taken over the replicates in which the pair was detected.
"nd" marks a missing value. The strain was present, yet no cells mated with the target were sequenced in any replicate, which points to weak or no binding.
Entries are sorted by rising average, undetected variants last.
Values of this round are not directly comparable with the first-round values of the same sequences.

The variant KLSQSFMYEERNPNSVA, NASKREL, QQYHRLPLS gave -0.35 (6 of 6 replicates; controls 1 of 18).
The variant ALSQSMDMTSRNKNSVA, DLTTRMN, QQYHRLPLS gave -0.24 (6 of 6 replicates; controls 0 of 18).
The variant KLQQQDEYESRNKNSVA, NASTRWQ, QQYHRLPLS gave -0.19 (6 of 6 replicates; controls 0 of 18).
The variant KLSQSVNYLSRVMNSVA, DNSTRGS, QQYFRLPLS gave -0.12 (6 of 6 replicates; controls 2 of 18).
The variant KIGMTLNTLLHQKNNVA, DLVNREN, QQYFRLPLS gave 0.02 (6 of 6 replicates; controls 0 of 18).
The variant KISQVFMMTGKLANSVA, NAYTRVQ, QQYHRLPLS gave 0.06 (6 of 6 replicates; controls 1 of 18).
The variant KLSMSVLMEQRNKNSVA, SANTRME, QQYHRLPLS gave 0.07 (6 of 6 replicates; controls 1 of 18).
The variant KLTMISGLEKVSKNNVA, EMETRYE, QQYNRLPLS gave 0.11 (6 of 6 replicates; controls 0 of 18).
The variant KISIGVWGGDRNKNSVA, DASTRES, QQYHRLPLS gave 0.11 (6 of 6 replicates; controls 0 of 18).
The variant KLDISELGESRNWNSVA, NASQREE, QQYHRLPLW gave 0.12 (6 of 6 replicates; controls 0 of 18).
The variant TLSDLMYMESRNVNSVA, DLVKREN, QQYHRLPLS gave 0.12 (6 of 6 replicates; controls 0 of 18).
The variant KLSSSHLYEERNDNSVA, SASQREM, QQYHRLPLS gave 0.17 (6 of 6 replicates; controls 0 of 18).
The variant KLSQSQGGWQRNKNSVA, EASTREM, QQYHRLPLS gave 0.25 (6 of 6 replicates; controls 0 of 18).
The variant QIYQAMHTLMQAKNNIA, DVTNRNQ, QQYHRLPLS gave 0.39 (6 of 6 replicates; controls 0 of 18).
The variant KLSQVTHSESRNKNSIA, EMVTRES, QQYDRLPLS gave 0.41 (6 of 6 replicates; controls 2 of 18).
The variant SLKTMPGEIPKEYNSIA, HAELRTP, QQYHRLPLI gave 0.46 (6 of 6 replicates; controls 1 of 18).
The variant KFMMSGEYQMHEQNNIA, QGNIKFK, QQYFRLPIS gave 0.49 (6 of 6 replicates; controls 2 of 18).
The variant HVAQTRQEDIQNKNNVA, EGSVVIS, QQYSKLPFS gave 0.61 (6 of 6 replicates; controls 2 of 18).
The variant KMEQGVPYESRNKGSVA, GASVRES, QQYHRLPLS gave 0.62 (6 of 6 replicates; controls 0 of 18).
The variant MLSDTVMQGSYSRNSVA, QEQTRAE, QQYHHLPLS gave 0.68 (6 of 6 replicates; controls 0 of 18).
The variant MISQVMNTLTRNGNNVA, DLQNRED, QQYFRLPLS gave 0.76 (6 of 6 replicates; controls 0 of 18).
The variant KLSFMVMEGSRNKNSVA, EASLREW, QQYHRLPLS gave 0.77 (6 of 6 replicates; controls 0 of 18).
The variant QIYQAMHTLMQAKNNVA, DVTNRQK, QQYNRLPLS gave 0.78 (6 of 6 replicates; controls 0 of 18).
The variant QISQVMGISTHGVNNVA, QMETREE, QQYDRLPLS gave 0.81 (6 of 6 replicates; controls 0 of 18).
The variant SISGFMKSLSVHANSVA, DMTNREN, QQYDRLPLS gave 0.86 (6 of 6 replicates; controls 3 of 18).
The variant KLRQSTHIESFNKNNVA, EMSTRES, QSYDRLPLS gave 0.95 (6 of 6 replicates; controls 0 of 18).
The variant KVSDSAGFLSRNRNSVA, DNSTRGS, QQYHRLPLS gave 0.96 (6 of 6 replicates; controls 0 of 18).
The variant MMSQVSGQGTRHRNNVA, QTSTREP, QQYDRLPLI gave 1.02 (6 of 6 replicates; controls 1 of 18).
The variant TIGQTLMTGVRNRSNVA, EVSERLN, QQYDRLPLL gave 1.20 (6 of 6 replicates; controls 0 of 18).
The variant STTSHEEESKGAHASVA, EASMLES, QQYHRLPLD gave 1.23 (4 of 6 replicates; controls 0 of 18).
The variant KSSISYLGESRNKNYVA, EASTRES, QQYHMGPLG gave 1.36 (6 of 6 replicates; controls 0 of 18).
The variant KLDASMYVGTEAKRAIA, QDEMLVH, QQYDRLPLM gave 1.39 (4 of 6 replicates; controls 0 of 18).
The variant KLRQVTGYESYNKNSVA, QTSTRAS, QDYHRLPLS gave 1.40 (6 of 6 replicates; controls 1 of 18).
The variant KITATMRFEQKASNNIA, EVTLRSK, QQYMRLPLS gave 1.50 (6 of 6 replicates; controls 0 of 18).
The variant KLGGEQYSSTYEMDNVA, DVNTTYE, QHYSRLPLT gave 1.63 (6 of 6 replicates; controls 1 of 18).
The variant KIYAATMLESHDKNSIA, DLTNRGN, QQYHRLPLS gave 1.71 (6 of 6 replicates; controls 0 of 18).
The variant KLWAYLQGLESNMQNVA, DGIYRST, QQYDRLPLS gave 1.88 (6 of 6 replicates; controls 1 of 18).
The variant HFQHLFFGDFAWANSIA, ERSQVCE, QQYFRLPLG gave 2.06 (4 of 6 replicates; controls 0 of 18).
The variant KLQGFSQNYNDIWNSIA, DESMKHT, QHYDRLPLV gave 2.16 (6 of 6 replicates; controls 0 of 18).
The variant KLYQRGLGSQKVDRSIA, ETSTRCT, QSYQRLPLS gave 2.16 (6 of 6 replicates; controls 2 of 18).
The variant HVMHEQLDYKNYENNIA, HESQRLY, QQYSQLPLT gave 2.28 (4 of 6 replicates; controls 0 of 18).
The variant ILYDSVLGLSRNKNSVA, DNSTRES, QQYDRLPLS gave 2.47 (3 of 6 replicates; controls 0 of 18).
The variant MISQLINMGQFAINSVA, QAETRCN, QQYDRLPLT gave nd (0 of 6 replicates; controls 0 of 18).
The variant ILYESVGTLSRNKNSVA, DNSNRES, QQYDRLPLS gave nd (0 of 6 replicates; controls 0 of 18).
The variant MLENKPTSFNDNKDAIA, DDSASTS, QQYDRLPLS gave nd (0 of 6 replicates; controls 0 of 18).
The variant KITLIFSNKGNQRHSVA, NAETLIH, QQYYRLPFL gave nd (0 of 6 replicates; controls 0 of 18).

Top 5 of the variants detected in all replicates, tightest first:

Variant KLSQSFMYEERNPNSVA, NASKREL, QQYHRLPLS gave -0.35 (6 of 6 replicates; controls 1 of 18).
Variant ALSQSMDMTSRNKNSVA, DLTTRMN, QQYHRLPLS gave -0.24 (6 of 6 replicates; controls 0 of 18).
Variant KLQQQDEYESRNKNSVA, NASTRWQ, QQYHRLPLS gave -0.19 (6 of 6 replicates; controls 0 of 18).
Variant KLSQSVNYLSRVMNSVA, DNSTRGS, QQYFRLPLS gave -0.12 (6 of 6 replicates; controls 2 of 18).
Variant KIGMTLNTLLHQKNNVA, DLVNREN, QQYFRLPLS gave 0.02 (6 of 6 replicates; controls 0 of 18).

As a blank, each scFv also met three strains without target: over all light chain designs, 4% of these pairings were detected, typically at 2.64 and seldom below 1.59. For each scFv, signals with the empty controls are counted beside the result.
In the paper, a design with two or fewer of six values counts as a poor binder.
The parent sequence was in this pool as ten entries: three were never detected, three once, and four in most replicates, with averages from 0.34 to 2.37.

Values reported by Li et al. 2023, doi:10.1038/s41467-023-39022-2 (FLAb copy).